The values below come from US11447470B2, “Pyrimidinone-containing compound, preparation method thereof, pharmaceutical composition and application thereof” (YUNNAN UNIVERSITY, priority 2018, dated 2022).

System in one series: not listed separately
Briefly: Cytotoxicity experiment (MTT method) on C8166 cells. It is filed as cell-based. Particulars: human, three days. As to the method: (§1) C8166 cells infected with HIV-1 were used for determining the anti-HIV biological activity at the cellular level. The specific method was described below.
(§2) Cytotoxicity experiment: The toxicity of the compounds on C8166 cells was determined by MTT method. In 96-well cell culture plates, the compounds were subjected to 5-fold serial dilution and 100 μL of C8166 cell suspension (4×10^5/mL) was added into each well. Triplicate wells were set for each concentration. […] The cells were incubated at 37° C. in a 5% CO2 incubator for three days, followed by the addition of MTT solution into each well, and then the cells were incubated at 37° C. for 4 hours. 10% SDS-50% DMF was added into each well and the cells were incubated at 37° C. in a 5% CO2 incubator overnight. After mixing evenly, the OD values were measured by BIO-TEK ELx800 ELISA instrument (determination wavelength: 570 nm; reference wavelength: 630 nm).
In general terms: Tetrazolium assays rely on reduction of a dye to a coloured formazan, in cell work by metabolically active cells.
A word on the CC50: it is the concentration at which the toxic effect on the cells reaches its halfway point. In turn, `O=c1cc(CC2CCCCC2)nc(SCc2cc(-c3ccccc3)[nH]n2)[nH]1` [Compound I-44] displayed a CC50 at 3 days of 79.5 µM.

A further series concerns C8166 cells. The series is described as above. In kind it is cell-based. Conditions: three days. As to the method: as §1, §2
As to `CCc1c(CC2CCCCC2)nc(SCc2cc(-c3ccccc3)[nH]n2)[nH]c1=O` [Compound I-02], the CC50 was 84.5 µM. `CCc1c(CC2CCCCC2)nc(SCc2cc(-c3cccc(Br)c3)[nH]n2)[nH]c1=O` [Compound I-03] gave a CC50 of 76.3 µM. As to `CCc1c(CC2CCCCC2)nc(SCc2n[nH]c(-c3cccc(Br)c3)c2Cl)[nH]c1=O` [Compound I-04], it took 58.1 µM to reach half-maximal cytotoxicity (CC50). Take `CCc1c(CC2CCCCC2)nc(SCc2cc(-c3cccc(Cl)c3)[nH]n2)[nH]c1=O` [Compound I-05]: it took 81 µM to reach half-maximal cytotoxicity (CC50). Turning to `CCc1c(CC2CCCCC2)nc(SCc2n[nH]c(-c3cccc(Cl)c3)c2Cl)[nH]c1=O` [Compound I-06], the CC50 was 66.1 µM.

As for `CCc1c(CC2CCCCC2)nc(SCc2cc(-c3ccc(Cl)cc3)[nH]n2)[nH]c1=O` [Compound I-07], the CC50 was found to be 83.9 µM.

With `CCc1c(CC2CCCCC2)nc(SCc2cc(-c3ccc(F)cc3)[nH]n2)[nH]c1=O` [Compound I-08], the CC50 came to 74.9 µM.

Take `CCc1c(CC2CCCCC2)nc(SCc2n[nH]c(-c3ccc(F)cc3)c2Cl)[nH]c1=O` [Compound I-09]: the CC50 was 64.9 µM.

Compound `CCc1c(CC2CCCCC2)nc(SCc2n[nH]c(-c3ccc(OC)c(Cl)c3)c2Cl)[nH]c1=O` [Compound I-11] displayed a CC50 of 49.8 µM.

For `CCc1c(CC2CCCCC2)nc(SCc2cc(-c3ccc(Cl)c(Cl)c3)[nH]n2)[nH]c1=O` [Compound I-12], the CC50 was 75.4 µM. Compound `CCc1c(CC2CCCCC2)nc(SCc2cc(-c3cccc(F)c3)[nH]n2)[nH]c1=O` [Compound I-14] gave a CC50 of 72 µM. Regarding `CCc1c(CC2CCCCC2)nc(SCc2cc(-c3ccc(F)c(F)c3)[nH]n2)[nH]c1=O` [Compound I-18], it took 86.4 µM to reach half-maximal cytotoxicity (CC50). Take `CCc1c(CC2CCCCC2)nc(SCc2n[nH]c(-c3ccc(F)c(F)c3)c2Cl)[nH]c1=O` [Compound I-19]: the CC50 stood at 115 µM. `CCc1c(CC2CCCCC2)nc(SCc2cc(-c3ccc(F)cc3F)[nH]n2)[nH]c1=O` [Compound I-20]: the CC50 stood at 59.7 µM. For `CCc1c(CC2CCCCC2)nc(SCc2n[nH]c(-c3cccc(C)c3)c2Cl)[nH]c1=O` [Compound I-24], half-maximal cytotoxicity (CC50) was put at 77.1 µM. The compound `CCc1c(CC2CCCCC2)nc(SCc2cc(-c3cccc(C(F)(F)F)c3)[nH]n2)[nH]c1=O` [Compound I-26] returned a CC50 of 34.4 µM. Still for that read-out and setting: next, `CCc1c(CC2CCCCC2)nc(SCc2n[nH]c(-c3cccc(C(F)(F)F)c3)c2Cl)[nH]c1=O` [Compound I-27]: 55.1 µM; `CCc1c(CC2CCCCC2)nc(SCc2cc(-c3ccc(C)cc3C)[nH]n2)[nH]c1=O` [Compound I-29]: 87.4 µM; `CCc1c(CC2CCCCC2)nc(SCc2cc(C(C)(C)C)[nH]n2)[nH]c1=O` [Compound I-30]: 67.9 µM.

Consider `CCc1c(CC2CCCCC2)nc(SCc2cc[nH]n2)[nH]c1=O` [Compound I-31], for which half-maximal cytotoxicity (CC50) was put at 75 µM. Still for that read-out and setting: next, `CCc1c(CC2CCCCC2)nc(SCc2cc(C)[nH]n2)[nH]c1=O` [Compound I-32]: 45.2 µM; `CCc1c(CC2CCCCC2)nc(SCc2cc(C3CC3)[nH]n2)[nH]c1=O` [Compound I-33]: 47.2 µM; `CCc1c(CC2CCCCC2)nc(SCc2cc(-c3ccccn3)[nH]n2)[nH]c1=O` [Compound I-34]: 79.4 µM.

On to `Cc1c(CC2CCCCC2)nc(SCc2cc(-c3ccc(F)cc3)[nH]n2)[nH]c1=O` [Compound I-42], for which the CC50 worked out at 42.2 µM. The compound `COc1ccc(-c2cc(CSc3nc(CC4CCCCC4)c(C)c(=O)[nH]3)n[nH]2)cc1` [Compound I-43] registered a CC50 of 66.9 µM. As for `O=c1cc(CC2CCCCC2)nc(SCc2cc(-c3ccc(F)cc3)[nH]n2)[nH]1` [Compound I-45], the CC50 came to 61.6 µM. On the same count and under the same terms, in the case of `COc1ccc(-c2cc(CSc3nc(CC4CCCCC4)cc(=O)[nH]3)n[nH]2)cc1` [Compound I-46] it was 56.1 µM.
